Structures are written as SMILES. This is a selection; strong and weak results do not stand in their true shares. Activity calls are given as the source filed them. Rule as the data show it: active = response mostly above about 7.3% (no sharp cut-off); inactive = mostly below about 5.4%.

This test in a line: regulators of yeast V-ATPase proton pumping, primary screen, pHLuorin cytosolic pH fluorescence (AID 504577). Also: actives read high. As to conditions: S. cerevisiae, at 10 µM, stronger effect = higher value.
On to `CN(C)CCOC(=O)C(O)(c1ccccc1)C1CCCCC1` (stereo unspecified), for which the response is inactive: -6.91%.

For the origin of these results see PubChem BioAssay AID504577 (NMMLSC, 2011).
